Patent US6858018B1

Assay: in vitro iontophoretic delivery through excised porcine skin in flow-through cells
Conditions: 500 uA

Substance: remifentanil hydrochloride
- Flux (Exp #11, 10 mg/ml in 10 mM acetic acid, 1 mg, 0.00 hrs): 0.00 μg/min/cm^2
- Flux (Exp #11, 10 mg/ml in 10 mM acetic acid, 1 mg, 1.00 hrs): 0.00 μg/min/cm^2
- Flux (Exp #11, 10 mg/ml in 10 mM acetic acid, 1 mg, 2.00 hrs): 0.00 μg/min/cm^2
- Flux (Exp #11, 10 mg/ml in 10 mM acetic acid, 1 mg, 3.00 hrs): 0.00 μg/min/cm^2
- Flux (Exp #11, 10 mg/ml in 10 mM acetic acid, 1 mg, 4.00 hrs): 0.00 μg/min/cm^2
- Flux (Exp #11, 10 mg/ml in 10 mM acetic acid, 1 mg, 5.00 hrs): 0.01 μg/min/cm^2
- Flux (Exp #11, 10 mg/ml in 10 mM acetic acid, 1 mg, 6.00 hrs): 0.01 μg/min/cm^2
- Flux (Exp #11, 10 mg/ml in 10 mM acetic acid, 1 mg, 7.00 hrs): 0.01 μg/min/cm^2
- Flux (Exp #11, 10 mg/ml in 10 mM acetic acid, 1 mg, 8.00 hrs): 0.02 μg/min/cm^2
- Flux (Exp #11, 10 mg/ml in 10 mM acetic acid, 1 mg, 9.00 hrs): 0.03 μg/min/cm^2
- Flux (Exp #11, 10 mg/ml in 10 mM acetic acid, 1 mg, 10.00 hrs): 0.06 μg/min/cm^2
- Flux (Exp #11, 10 mg/ml in 10 mM acetic acid, 1 mg, 11.00 hrs): 0.06 μg/min/cm^2
- Flux (Exp #11, 10 mg/ml in 10 mM acetic acid, 1 mg, 12.00 hrs): 0.08 μg/min/cm^2
- Flux (Exp #11, 10 mg/ml in 10 mM acetic acid, 1 mg, 13.00 hrs): 0.09 μg/min/cm^2
- Flux (Exp #11, 10 mg/ml in 10 mM acetic acid, 1 mg, 14.00 hrs): 0.11 μg/min/cm^2
- Flux (Exp #11, 10 mg/ml in 10 mM acetic acid, 1 mg, 15.00 hrs): 0.12 μg/min/cm^2
- Flux (Exp #11, 10 mg/ml in 10 mM acetic acid, 1 mg, 16.00 hrs): 0.12 μg/min/cm^2
- Flux (Exp #11, 10 mg/ml in 10 mM acetic acid, 1 mg, 17.00 hrs): 0.13 μg/min/cm^2
- Flux (Exp #11, 10 mg/ml in 10 mM acetic acid, 1 mg, 18.00 hrs): 0.15 μg/min/cm^2
- Flux (Exp #11, 10 mg/ml in 10 mM acetic acid, 1 mg, 19.00 hrs): 0.15 μg/min/cm^2
- Flux (Exp #11, 10 mg/ml in 10 mM acetic acid, 1 mg, 20.00 hrs): 0.17 μg/min/cm^2
- Flux (Exp #11, 10 mg/ml in 10 mM acetic acid, 1 mg, 21.00 hrs): 0.16 μg/min/cm^2
- Flux (Exp #11, 10 mg/ml in 10 mM acetic acid, 1 mg, 22.00 hrs): 0.18 μg/min/cm^2
- Flux (Exp #11, 10 mg/ml in 10 mM acetic acid, 1 mg, 23.00 hrs): 0.19 μg/min/cm^2
- Flux (Exp #11, 10 mg/ml in 10 mM acetic acid, 1 mg, 24.00 hrs): 0.20 μg/min/cm^2
- Flux (Exp #12, 10 mg/ml in 10 mM acetic acid, 3 mg, 0.00 hrs): 0.00 μg/min/cm^2
- Flux (Exp #12, 10 mg/ml in 10 mM acetic acid, 3 mg, 1.00 hrs): 0.00 μg/min/cm^2
- Flux (Exp #12, 10 mg/ml in 10 mM acetic acid, 3 mg, 2.00 hrs): 0.00 μg/min/cm^2
- Flux (Exp #12, 10 mg/ml in 10 mM acetic acid, 3 mg, 3.00 hrs): 0.01 μg/min/cm^2
- Flux (Exp #12, 10 mg/ml in 10 mM acetic acid, 3 mg, 4.00 hrs): 0.01 μg/min/cm^2
- Flux (Exp #12, 10 mg/ml in 10 mM acetic acid, 3 mg, 5.00 hrs): 0.02 μg/min/cm^2
- Flux (Exp #12, 10 mg/ml in 10 mM acetic acid, 3 mg, 6.00 hrs): 0.02 μg/min/cm^2
- Flux (Exp #12, 10 mg/ml in 10 mM acetic acid, 3 mg, 7.00 hrs): 0.02 μg/min/cm^2
- Flux (Exp #12, 10 mg/ml in 10 mM acetic acid, 3 mg, 8.00 hrs): 0.02 μg/min/cm^2
- Flux (Exp #12, 10 mg/ml in 10 mM acetic acid, 3 mg, 9.00 hrs): 0.02 μg/min/cm^2
- Flux (Exp #12, 10 mg/ml in 10 mM acetic acid, 3 mg, 10.00 hrs): 0.01 μg/min/cm^2
- Flux (Exp #12, 10 mg/ml in 10 mM acetic acid, 3 mg, 11.00 hrs): 0.01 μg/min/cm^2
- Flux (Exp #12, 10 mg/ml in 10 mM acetic acid, 3 mg, 12.00 hrs): 0.01 μg/min/cm^2
- Flux (Exp #12, 10 mg/ml in 10 mM acetic acid, 3 mg, 13.00 hrs): 0.01 μg/min/cm^2
- Flux (Exp #12, 10 mg/ml in 10 mM acetic acid, 3 mg, 14.00 hrs): 0.01 μg/min/cm^2
- Flux (Exp #12, 10 mg/ml in 10 mM acetic acid, 3 mg, 15.00 hrs): 0.02 μg/min/cm^2
- Flux (Exp #12, 10 mg/ml in 10 mM acetic acid, 3 mg, 16.00 hrs): 0.02 μg/min/cm^2
- Flux (Exp #12, 10 mg/ml in 10 mM acetic acid, 3 mg, 17.00 hrs): 0.03 μg/min/cm^2
- Flux (Exp #12, 10 mg/ml in 10 mM acetic acid, 3 mg, 18.00 hrs): 0.03 μg/min/cm^2
- Flux (Exp #12, 10 mg/ml in 10 mM acetic acid, 3 mg, 19.00 hrs): 0.04 μg/min/cm^2
- Flux (Exp #12, 10 mg/ml in 10 mM acetic acid, 3 mg, 20.00 hrs): 0.04 μg/min/cm^2
- Flux (Exp #12, 10 mg/ml in 10 mM acetic acid, 3 mg, 21.00 hrs): 0.05 μg/min/cm^2
- Flux (Exp #12, 10 mg/ml in 10 mM acetic acid, 3 mg, 22.00 hrs): 0.06 μg/min/cm^2
- Flux (Exp #12, 10 mg/ml in 10 mM acetic acid, 3 mg, 23.00 hrs): 0.07 μg/min/cm^2
- Flux (Exp #12, 10 mg/ml in 10 mM acetic acid, 3 mg, 24.00 hrs): 0.08 μg/min/cm^2
- Flux (Exp #13, 2.5 mg/ml in 10 mM acetic acid, 0.75 mg, 0.00 hrs): 0.00 μg/min/cm^2
- Flux (Exp #13, 2.5 mg/ml in 10 mM acetic acid, 0.75 mg, 1.00 hrs): 0.00 μg/min/cm^2
- Flux (Exp #13, 2.5 mg/ml in 10 mM acetic acid, 0.75 mg, 2.00 hrs): 0.00 μg/min/cm^2
- Flux (Exp #13, 2.5 mg/ml in 10 mM acetic acid, 0.75 mg, 3.00 hrs): 0.00 μg/min/cm^2
- Flux (Exp #13, 2.5 mg/ml in 10 mM acetic acid, 0.75 mg, 4.00 hrs): 0.01 μg/min/cm^2
- Flux (Exp #13, 2.5 mg/ml in 10 mM acetic acid, 0.75 mg, 5.00 hrs): 0.01 μg/min/cm^2
- Flux (Exp #13, 2.5 mg/ml in 10 mM acetic acid, 0.75 mg, 6.00 hrs): 0.01 μg/min/cm^2
- Flux (Exp #13, 2.5 mg/ml in 10 mM acetic acid, 0.75 mg, 7.00 hrs): 0.01 μg/min/cm^2
- Flux (Exp #13, 2.5 mg/ml in 10 mM acetic acid, 0.75 mg, 8.00 hrs): 0.02 μg/min/cm^2
- Flux (Exp #13, 2.5 mg/ml in 10 mM acetic acid, 0.75 mg, 9.00 hrs): 0.03 μg/min/cm^2
- Flux (Exp #13, 2.5 mg/ml in 10 mM acetic acid, 0.75 mg, 10.00 hrs): 0.04 μg/min/cm^2
- Flux (Exp #13, 2.5 mg/ml in 10 mM acetic acid, 0.75 mg, 11.00 hrs): 0.05 μg/min/cm^2
- Flux (Exp #13, 2.5 mg/ml in 10 mM acetic acid, 0.75 mg, 12.00 hrs): 0.06 μg/min/cm^2
- Flux (Exp #13, 2.5 mg/ml in 10 mM acetic acid, 0.75 mg, 13.00 hrs): 0.07 μg/min/cm^2
- Flux (Exp #13, 2.5 mg/ml in 10 mM acetic acid, 0.75 mg, 14.00 hrs): 0.08 μg/min/cm^2
- Flux (Exp #13, 2.5 mg/ml in 10 mM acetic acid, 0.75 mg, 15.00 hrs): 0.09 μg/min/cm^2
- Flux (Exp #13, 2.5 mg/ml in 10 mM acetic acid, 0.75 mg, 16.00 hrs): 0.10 μg/min/cm^2
- Flux (Exp #13, 2.5 mg/ml in 10 mM acetic acid, 0.75 mg, 17.00 hrs): 0.10 μg/min/cm^2
- Flux (Exp #13, 2.5 mg/ml in 10 mM acetic acid, 0.75 mg, 18.00 hrs): 0.11 μg/min/cm^2
- Flux (Exp #13, 2.5 mg/ml in 10 mM acetic acid, 0.75 mg, 19.00 hrs): 0.11 μg/min/cm^2
- Flux (Exp #13, 2.5 mg/ml in 10 mM acetic acid, 0.75 mg, 20.00 hrs): 0.12 μg/min/cm^2
- Flux (Exp #13, 2.5 mg/ml in 10 mM acetic acid, 0.75 mg, 21.00 hrs): 0.12 μg/min/cm^2
- Flux (Exp #13, 2.5 mg/ml in 10 mM acetic acid, 0.75 mg, 22.00 hrs): 0.11 μg/min/cm^2
- Flux (Exp #13, 2.5 mg/ml in 10 mM acetic acid, 0.75 mg, 23.00 hrs): 0.12 μg/min/cm^2
- Flux (Exp #13, 2.5 mg/ml in 10 mM acetic acid, 0.75 mg, 24.00 hrs): 0.11 μg/min/cm^2
- Flux (Exp #14, 20 mg/ml in 10 mM acetic acid, 2 mg, 0.00 hrs): 0.00 μg/min/cm^2

Only a part of the results on these compounds is given; other tests are left out.
